Measurements: ChEMBL document CHEMBL4342494 (ACS Med Chem Lett, 2020)
Calls of active or inactive are those of the source. No cut-off for these calls is given here.

The chains behind the UniProt entries cited, without tags or fusion partners.
UniProt P14416, whole entry: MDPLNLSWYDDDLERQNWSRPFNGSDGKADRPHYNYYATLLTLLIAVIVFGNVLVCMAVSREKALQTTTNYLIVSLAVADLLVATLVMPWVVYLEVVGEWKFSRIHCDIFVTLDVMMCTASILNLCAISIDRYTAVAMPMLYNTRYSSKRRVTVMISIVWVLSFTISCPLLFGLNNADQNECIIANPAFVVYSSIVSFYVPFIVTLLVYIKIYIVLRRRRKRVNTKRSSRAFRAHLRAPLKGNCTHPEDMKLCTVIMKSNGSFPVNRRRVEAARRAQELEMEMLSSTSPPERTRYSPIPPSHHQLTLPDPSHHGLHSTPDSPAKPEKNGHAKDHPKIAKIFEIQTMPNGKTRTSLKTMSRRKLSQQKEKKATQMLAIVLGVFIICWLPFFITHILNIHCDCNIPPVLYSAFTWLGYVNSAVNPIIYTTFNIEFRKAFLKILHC

Key:
[1] = molecular target: T1, D(2) dopamine receptor (Homo sapiens, UniProt P14416)
[2] = molecular target: T1, D(2) dopamine receptor; assay: Antagonist activity at D2 long receptor (unknown origin) transfected in human HEK293T cells assessed as increase in cAMP accumulation incubated for 2 hrs by cAMP Glo-sensor assay; type: functional, cell-based
[3] = molecular target: T1, D(2) dopamine receptor; assay: Antagonist activity at C-terminal RLuc8-fused D2 long receptor (unknown origin) transfected in human HEK293T cells co-expressing N-terminal Venus-tagged beta-arrestin2 assessed as increase in beta-arrestin2 recruitment measured after 5 mins in presence of coelenterazine H by BRET assay; type: cell-based

Compound	pEC50 [1]	IC50 [2] [nM]	IC50 [3] [nM]
COc1cccc(-c2cc3c(c(OC(C)=O)c2OC(C)=O)-c2cccc4c2[C@@H](C3)N(C)CC4)c1	inactive	–	–
CCN1CCC[C@H]1CNC(=O)c1c(O)c(Cl)cc(Cl)c1OC (racemic) [RACLOPRIDE]	–	104	1.83
